{
  "source": "patent US20210371422A1",
  "about": "“MORPHINAN DERIVATIVE” (priority 2016, published 2021)",
  "key": {"opioid δ receptor": {"biological_target": "opioid δ receptor (Mus musculus, UniProt P32300)", "assay": "[3H]DPDPE competitive binding test in a mouse cerebral membrane fraction", "details": "read-out: Ki value of binding affinity to the opioid δ receptor", "description": "A comparative compound was a compound described in Example 12 of WO 2014/136305 (Patent Literature 6). […] The concentration in the cerebrospinal fluid at this time was almost equal to a Ki value of 1.2 nmol/L of binding affinity to the opioid δ receptor (measured by [^3H]DPDPE competitive binding test in a mouse cerebral membrane fraction)."}, "[1]": {"assay": "Intracerebral migration test (concentration in cerebrospinal fluid and plasma)", "details": "rat, 10 mg/kg s.c., 30 minutes after administration", "description": "Intracerebral Migration Test\nA Wistar male 5-9 week old rat was used for the test. A test substance was dissolved in saline or a 4.5% cyclodextrin aqueous solution, and 1 mol/L hydrochloric acid (0.5 to 2.0 v/v %) was added thereto as necessary. The test substance was subcutaneously administered to the rat at a dose of 3 or 10 mg/kg. Thirty minutes later, cerebrospinal fluid was collected from the cisterna magna under isoflurane anesthesia. Subsequently, laparotomy was performed, and blood was collected from the vena cava. Thereafter, the blood was centrifuged at 1500×g at 4° C. for 15 minutes to obtain plasma. The animal was euthanized promptly by aortic cutting. The concentrations of the test substance in cerebrospinal fluid and plasma were measured using LC-MS/MS."}, "Wistar male rats": {"tested_on": "Wistar male rats", "assay": "Rat elevated plus maze test", "details": "s.c.", "description": "Rat Elevated Plus Maze Test\nAn anxiolytic effect of a compound provided by the present invention was examined using the rat elevated plus maze test.\nFor the test, 7 to 9 weeks old Wistar male rats were used. […] Each test substance was dissolved in a 4.5% aqueous solution of cyclodextrin, and orally administered 2 hours before the start of the test. The test data were automatically analyzed by using video image action analysis software (Smart3.0, PanLab S.L., PanLab), and wall-less running route staying time ratio (%) was calculated."}},
  "data": [
    {"smiles": "NCCCN1CCC23c4cc(O)ccc4CC1C21CCC2C3[C@@H](CN2C(=O)c2ccccc2)C1", "note": "(stereo partly shown)", "values": [
      {"measurement": "Ki", "setting": "opioid δ receptor", "value": 1.2, "unit": "nM"},
      {"measurement": "Concentration in cerebrospinal fluid", "setting": "[1]", "value": 3.6, "unit": "nM"},
      {"measurement": "Concentration in plasma", "setting": "[1]", "value": 2400, "unit": "nM"},
      {"measurement": "minimum effective medicinal dose", "setting": "Wistar male rats", "value": 10, "unit": "mg/kg"}
    ]}
  ]
}
